Results published in patent US10258701B2, “Labeled evans blue dye derivative for in vivo serum albumin labeling” (The United States of America, as represented by the …, priority 2015, dated 2019).

Experiment: Ex vivo radioactivity in tissues and organs after PET imaging of normal mice (Table 1)
Excerpt: After PET imaging, the animals were sacrificed and major tissues and organs were collected. With both ^18F-AlF-NEB and ^18F-FB-MSA, the blood had the highest counts.

## ^18F-FB-MSA: mouse serum albumin (MSA) labeled in vitro with N-succinimidyl 4-^18F-fluorobenzoate
  radioactivity, Blood: 34.71 ± 3.29
  radioactivity, Intestine: 3.10 ± 0.28
  radioactivity, Kidney: 12.01 ± 05.59
  radioactivity, Liver: 7.42 ± 053
  radioactivity, Muscle: 0.80 ± 0.09
  radioactivity, Pancreas: 2.09 ± 0.15
  radioactivity, Spleen: 8.52 ± 1.71
